Molecules are shown by their SMILES.

Protein sequences, listed by entry. Tags and fused reporters are not part of them. Lines headed by an entry give the natural chain unless they say otherwise; changes in a name come on top.
UniProt P49841: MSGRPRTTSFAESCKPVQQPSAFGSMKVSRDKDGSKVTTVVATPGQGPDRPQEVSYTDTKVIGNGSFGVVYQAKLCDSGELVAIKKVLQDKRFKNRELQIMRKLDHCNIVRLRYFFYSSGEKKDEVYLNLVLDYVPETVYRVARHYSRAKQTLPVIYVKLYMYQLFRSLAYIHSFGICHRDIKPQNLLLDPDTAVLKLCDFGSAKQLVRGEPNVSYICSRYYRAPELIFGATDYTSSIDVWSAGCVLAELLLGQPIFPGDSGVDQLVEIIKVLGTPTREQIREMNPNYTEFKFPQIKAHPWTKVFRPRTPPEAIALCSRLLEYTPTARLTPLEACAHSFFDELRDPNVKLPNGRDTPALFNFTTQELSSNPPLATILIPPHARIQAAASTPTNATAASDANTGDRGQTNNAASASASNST

For orientation: IC50 means the concentration that inhibits the measured activity by half. High values mean weaker potency, low ones greater potency.

This test has as its target Glycogen synthase kinase-3 beta (Homo sapiens, UniProt P49841). The experiment in a line: Biochemical Assay. As to conditions: pH 7.5. From the text:
Fluorescence polarization-based kinase in vitro assay using human PI3K alpha purchased from Echelon Biosciences and p110 alpha/p85 alpha from Upstate follow by a Kinase Glo assay from Promega.

`N#[C][Ru]1[n]2c3ccc(O)cc3c3c4c(c5ccc[n+]1c5c32)C(=O)NC4=O` yielded an IC50 of 1.4 nM.

In turn, `CN1C(=O)c2c(c3c4cc(O)ccc4[n]4c3c3c2ccc[n+]3[Ru]4[C]#N)C1=O` returned an IC50 of more than 1000 nM.

(Values after BindingDB's records for 18484710 (University of Pennsylvania, 2008).)
